# Apparent affinities of Ab-14 variants for a coronavirus HR2 peptide

The measurements come from Li et al. 2023 (doi:10.1038/s41467-023-39022-2) through the FLAb antibody collection.

Target: peptide PDVDLGDISGINAS, taken from heptad repeat 2 (HR2) of SARS-CoV-2 spike.

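Phage display of a naive human antibody library on the peptide gave the parent. Designed CDR sequences, proposed from the first random library and measured here. Several design methods are mixed in this list. Affinity was read by AlphaSeq, a pooled yeast mating assay with surface-displayed partners. Pairs that bind mate more often; barcode pairs of the diploids are counted by sequencing. The ratio of observed to expected reads was calibrated, replicate by replicate, on BCL2-family standards whose Kd was known from biolayer interferometry. Each pool was mated in six replicate cultures.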

Each scFv is VH, the linker GGGGSGGGGSGGGGS, VL, as in the parent Ab-14, and differs from it in the CDRs of the light chain only.
VH: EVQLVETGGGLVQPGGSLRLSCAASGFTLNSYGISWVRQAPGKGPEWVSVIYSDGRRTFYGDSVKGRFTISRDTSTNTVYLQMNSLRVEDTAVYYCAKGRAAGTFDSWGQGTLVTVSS
VL: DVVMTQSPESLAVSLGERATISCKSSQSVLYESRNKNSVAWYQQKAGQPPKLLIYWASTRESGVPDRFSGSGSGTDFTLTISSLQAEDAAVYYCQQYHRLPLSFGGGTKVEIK

Variants are written as CDR1, CDR2 and CDR3 of the light chain (limits as in the source). Parent: KSSQSVLYESRNKNSVA, WASTRES, QQYHRLPLS.
The read-out is the apparent dissociation constant on a log10 scale (nM): the lower, the stronger.
The mean shown is taken over the replicates in which the pair was detected.
An entry "no signal" has no value in the source: the pair was not observed among the diploids in any replicate. This suggests poor binding but is not conclusive.

CDR-L1 | CDR-L2 | CDR-L3 | mean, log10 nM | replicates with signal
KLIQSVAMSSRNKDSIA | DNSTRES | QQYHRLPLS | 1.01 | 6/6
KIGMTLNQLYEKVNNVA | DLVTREN | QQYHRLPLS | 0.11 | 6/6
SMQVYTENFAEIGQNIA | DVSATTA | QQYHRLPLA | 0.77 | 6/6
KTPQGVLYESRNKNSVA | SASVRES | QQYHRLPLS | -0.19 | 6/6
KSSDSDLYEDRNKNQVA | WASTRET | QQYQRLPLS | 1.47 | 6/6
KQSQEKLYESRNKNSVA | DASQRES | QQYHRLPLS | -0.19 | 6/6
KFPQSVLYESRNKNSVA | GASTRES | QQYHRLPLS | 0.54 | 6/6
TLHANIEYGGIMWSSIA | GNVQRAN | QQYARLPLG | 2.65 | 5/6
KSSQSVLYESRNENGVA | AASTRES | QQYHRLPIS | 2.40 | 4/6
KFEQGFLYEERNKNSVA | HASQRES | QQYHRLPLS | -0.50 | 6/6
KLSQSVMYESRNKNSIA | MASTRES | QQYHRVPLS | no signal | 0/6
KVSPSMLYESRNKNSVA | EASTRES | QQYHRLPLS | -0.15 | 6/6
KLSQSVLYESRNKNSVA | QASTRMS | QQYHRLPLS | -0.11 | 6/6
MLSQMWALGMKVKNSVA | QASMRFN | QQYDRLPLV | no signal | 0/6
KLGMTLNELMMKKNNVA | DLVTREN | QQYHRLPLS | 0.12 | 6/6
KLGDMVHTLSRDKNSIA | DMRTRES | QQYYRLPLS | -0.09 | 6/6
KSSFSVLYESRNANSVA | WASTRES | QQYHRLPLS | 1.97 | 5/6
IISQVDAYESRNKNSIA | DQSTRGY | QQYDRLPLS | 0.46 | 6/6
TLGQVTMQLSVNKNSVA | DANTSED | QQYDRLPLS | no signal | 0/6
KSSQSVLYESRNENSVA | ALSTRES | QQYHRLPLS | 0.32 | 6/6
HITYGMYVSGRYKSNIA | QAEERAK | QQYDRLPFI | 0.41 | 6/6
KISQGVLYESRNKNNVA | DASTRES | QQYHRLPLS | -0.32 | 6/6
KVSEFMRGLMMRKDSIA | DNNTRQN | QQYDRLPLS | 2.35 | 5/6
NIVEDNAGDQKNSSNIA | SVDQRED | QQYQRLPLM | 0.74 | 6/6
HLSFPWQSGHDSTHAVA | NDSTLMT | QHYNRLPLS | 2.21 | 1/6
KTPQSVLYESRNKNSVA | GASVRES | QQYHRLPLS | -0.22 | 6/6
KSYWSVLYESNNKNSVA | HASTRED | QQYHRLPLS | 0.04 | 6/6
KLPQSVLYESRNKNSVA | NASTREQ | QQYHRLPLS | 0.00 | 6/6
KISMMVDYMSATHSSVA | QTSTREE | QQYHRLPLS | 0.17 | 6/6
KSSQSVLYESRNKNSVA | WASTRES | QQYHSLPLF | no signal | 0/6
KLQYLVLYGSRNKNSVA | NASTRLQ | QQYHRLPLS | 0.89 | 6/6
KSGQGELYESRNKNSVA | GASQRES | QQYHRLPLS | -0.40 | 6/6
KLSTSVLYESRNKNSVA | DASTRES | QQYHRLPLS | -0.21 | 6/6
KLSQSWGYESRNKNSVA | NASQRES | QQYHRLPLS | -0.02 | 6/6
TISQMTSLFSQSINNVA | EVSTREK | QQYDRLPLT | 1.11 | 6/6
TITGEQSMSTQGNWNIA | QAEQKVH | QQYDRLPLA | 0.59 | 5/6
IVSQLMLWGYHAKNSIA | EAEKRLN | QQYERLPLF | 2.05 | 1/6
HMSMLTLMGSRQRNSVA | QMTTREN | QQYDRLPLV | 2.37 | 4/6
KSSQSWLYESRNKNSVA | GASTRES | QQYFRLPIS | 0.93 | 6/6
KLSQYVGGESRNKSSLA | DNSTREN | QQYHRLPLS | 2.78 | 3/6
KLSQSQDYESRNKNSVA | NASTRLS | QQYHRLPLS | -0.25 | 6/6
KLSQSELYESRNKNSVA | NASTREK | QQYHRLPLS | -0.17 | 6/6
KSSQSVLEESRNKNSVA | WASTRES | QQYHRLILS | no signal | 0/6
KFLSLSLHQTGNLNSVA | DAEERQT | QQYMRLPLM | 0.41 | 6/6
TIGQMFNGESRNRNSVA | QASTREP | QSYDRLPLS | -0.02 | 6/6
KVSQSVLYESRNKNSVA | WASTRES | QQYHRLPLS | 1.09 | 12/12
KSSQSVLYDSRNKNSVA | WASTRES | QQYHRLPLS | 2.92 | 2/6
KLQQSVLYESRNKNSVA | NASQREE | QQYHRLPLS | -0.08 | 6/6
KLPQSELYESRNKNSVA | HASTRES | QQYHRLPLS | 0.11 | 6/6
MLSQMWALGTKVKNSVA | QASMRFN | QQYERLPLI | 1.88 | 4/6
KSSQSVLYESRNKNSVA | AASTRES | QGYHGLPLS | 2.60 | 4/6
KMGMAFQQDLMEEYSVA | DHMLRVT | QQYGRLPLS | 2.90 | 2/6
QISGITGHQSMSKNNVA | EMVTREN | QQYDRLPLS | 0.19 | 6/6
KSSISYLFEKRNKNSVA | EASTRES | QQYHRSPLS | no signal | 0/6
KVEQGVLDESRNDNSVA | WASTRES | QQYHRLPLS | 1.21 | 6/6
KLDPSDLMESRNWNSVA | QASTREI | QQYHRLPLS | 0.16 | 6/6
KMSQSVLYESRNKNSVA | WASTRES | QQYHRLELF | no signal | 0/6
KLQQSCLYESRNKNSVA | NASTRES | QQYHRLPLS | -0.17 | 6/6
KSEQSVLYEGRNKNSVA | WGSTRIS | QQYHRLPLS | 1.29 | 6/6
QLTWRAFNGDSVMNNVA | DRVHAQY | QQYSRLPFT | 0.72 | 6/6
HITYGMMVAGRHMESIA | QAEERAK | QQYDRLPLS | 0.35 | 6/6
KLVQFMNRGTHMTSNIA | DAQNRSD | QQYARLPLA | 0.35 | 6/6
KFSQSWLYESRNKNSVA | GASLRES | QQYHRLPLS | 0.02 | 6/6
SSSQSVLYSSRNKNSVA | QASTRES | QQYHRLPLS | 2.19 | 6/6
KSSQSVLFESRNKNSVA | WASTRET | QQYHRLPLS | 1.61 | 6/6
KFSQMANAMSVSHSAVA | EMSTRED | QQYNRLPLS | 0.10 | 6/6
KMSQSVLYESAEKISVA | WASTRES | QQYHRLKLS | no signal | 0/6
KLSQSVLYESRQKNSVA | NASQRES | QQYHRLPLS | -0.41 | 6/6
KISQMVRVGLTHSNSIA | EEETRAK | QQYHRLPLA | 1.45 | 6/6
KISQSVLKESRKKNDVA | WASTRES | QQYHREPLS | no signal | 0/6
KLMQSVLYESRNKNSVA | HASTRES | QQYHRLPLS | 0.19 | 6/6
KVSQSVLGEQRNSNSVA | DISTRES | QQYHRLPLS | 0.09 | 6/6
TIGGTLMYGVRNRSNVA | EVSQRLN | QQYDRLPLM | 0.80 | 6/6
KSPQAVLYESRNKNSVA | WASTRES | QQYHRLPLE | 2.10 | 1/6
HMSMLTLQGMRHTNSVA | QMTTRVN | QQYDRLPLV | 0.96 | 6/6
RLTQQMAGFNRHANNVA | STAVRQW | QQYARLPFI | 0.71 | 6/6
KLQQSEEYESRQFNSVA | SASQRNL | QQYHRLPLS | 0.53 | 6/6
MISQLYNMGQFAINSVA | QASQRNT | QQYDRLPLM | 1.64 | 6/6
KISQSVLMESCNVNNVA | NASTRED | QQYHRLPLS | 0.39 | 6/6

Repeated from above, the 10 best binders with a signal in all replicates:

CDR-L1,CDR-L2,CDR-L3,"mean, log10 nM",replicates with signal
KFEQGFLYEERNKNSVA,HASQRES,QQYHRLPLS,-0.50,6/6
KLSQSVLYESRQKNSVA,NASQRES,QQYHRLPLS,-0.41,6/6
KSGQGELYESRNKNSVA,GASQRES,QQYHRLPLS,-0.40,6/6
KISQGVLYESRNKNNVA,DASTRES,QQYHRLPLS,-0.32,6/6
KLSQSQDYESRNKNSVA,NASTRLS,QQYHRLPLS,-0.25,6/6
KTPQSVLYESRNKNSVA,GASVRES,QQYHRLPLS,-0.22,6/6
KLSTSVLYESRNKNSVA,DASTRES,QQYHRLPLS,-0.21,6/6
KQSQEKLYESRNKNSVA,DASQRES,QQYHRLPLS,-0.19,6/6
KTPQGVLYESRNKNSVA,SASVRES,QQYHRLPLS,-0.19,6/6
KLSQSELYESRNKNSVA,NASTREK,QQYHRLPLS,-0.17,6/6

Values of this round are not directly comparable with the first-round values of the same sequences.
Empty control strains, which show no peptide, gave a signal in 4% of pairings with all light chain designs; the median was 2.64 and 95% of these signals were weaker than 1.59. No background was subtracted.
Some sequences occur more than once in the pool; their replicates are pooled.
In the paper, a design with two or fewer of six values counts as a poor binder.